This is an account of results in US20260174823A1, “CGRP/RAMP1 BLOCKADE TO TREAT ENDOMETRIOSIS-ASSOCIATED PAIN AND REDUCE ENDOMETRIOSIS LESIONS” (The Children's Medical Center Corporation, priority 2022, published 2026).

Entries after “also recorded” stand apart in the source; their conditions may differ.

One assay has as its system peritoneal macrophages. The experiment in a line: efferocytosis assay: peritoneal macrophages with apoptotic 12z-eGFP cells. The assay is classed as cell-based, mouse. To be noted: CGRP 100 nM for 24 hours vs vehicle-treated group. As for the experimental part:
(§1) Peritoneal cells were collected in FACS buffer from the abdominal cavity of naïve mice. Peritoneal cavity immune cells were seeded in petri dishes in RPMI media and incubated at 37° C. in 5% CO2 for 60 minutes. Non-adherent cells were discarded, and adherent cells (macrophages) were scraped, centrifuged, and counted.
For the efferocytosis assay, macrophages (200,000 cells per well) were plated overnight onto a 96-well plate. Stimulus with CGRP (100 nM) or vehicle was performed for 24 hours. After that, etoposide-induced apoptotic 12z-eGFP were added (600,000 cells per well) to the macrophage culture and incubated for 1 hour. Cells were washed 3 times with DPBS to remove non-engulfed 12z-eGFP and then and fluorescence intensity determined. […]
(§2) Macrophages represent the majority of cells in the peritoneal cavity and these cells are directly implicated in the etiology of endometriosis. […] Cell growth was assessed using the CyQuant™ kit and quantification performed in a spectrophotometer (n=8 well per group). […]
PerC wash and lesions were collected 56 dpi from sham or endometriosis mice for determination of pCREB activation or RAMP1 expression by immunofluorescence (FIG. 9A). […] Lesion size was determined in the remaining lesions by measuring height and weight. […] Cells were washed 3 times with DPBS to remove non-engulfed 12z-eGFP and then and fluorescence intensity determined. […]

For the next assay, the system named is endometriosis lesions. To be noted: high-doses of CGRP, previously shown; cited from earlier work.
Assay [1] concerns mouse endometrial epithelial cells (mEECs). Kind of assay: mEEC proliferation assay in transwell co-culture with peritoneal macrophages (CyQuant). The settings on record: CGRP 100 nM for 24 hours vs vehicle. It is filed as cell-based. As for the experimental part: as §1
For experiments involving mouse epithelial endometrial cell (mEEC) proliferation, macrophages were plated (100,000 cells per well) onto tissue culture insert and left overnight with 20,000 mEEC plated on the bottom of the well. […]
as §2
PerC wash and lesions were collected 56 dpi from sham or endometriosis mice for determination of pCREB activation or RAMP1 expression by immunofluorescence (FIG. 9A). […] Lesion size was determined in the remaining lesions by measuring height and weight. […] Cells were washed 3 times with DPBS to remove non-engulfed 12z-eGFP and then and fluorescence intensity determined. […] Results shown are expressed as mean±SEM, n=5−12 (one-way ANOVA followed by Tukey's post hoc or Student's t-test, ****P<0.0001, p<0.001, **p<0.02, *p<0.05).

On to “calcitonin gene-related peptide (ACDTATCVTHRLAGLLSRSGGVVKNNFVPTNVGSKAF; Calcitonin gene-related peptide 1; UniProt P06881 83-119, looked up) [CGRP, neuropeptide released by peptidergic nociceptors, signals through RAMP1; used as stimulus (100 nM)]”, for which the “efferocytosis activity of macrophages (fluorescence intensity)” value in the assay on peritoneal macrophages is “reduced efferocytosis activity; also recorded: reduces efferocytosis”. In addition, the “growth of endometriosis lesions” value with endometriosis lesions is recorded as “increase the growth”. In assay [1], the “growth of mEEC in co-culture with CGRP stimulated macrophages” value was “promote the growth”.
